GRP78 ERSR act – induces the endoplasmic reticulum stress response in human glioma cells; U87-MG GRP78 promoter luciferase reporter, 16 h; Potency, µM, without a hit: at the highest dose activation, usual class: activators; 0.02% of 420,000 active; AID 602332; further: potency means the concentration at half of the fitted maximal effect; series mostly up to about 76 µM; % of control where 0% means no effect; nearly all actives have a fitted effect of over 35% in size
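Stably transfected U87-MG glioma cells carrying a GRP78-based luciferase sensor; 16 h compound incubation. Luminescence end-point read 10 min after Bright-Glo addition at room temperature.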
Nrf2 activator – activates Nrf2 signaling. AREc32 ARE-luciferase reporter (MCF7-derived line), luminescence, 24 h. Potency, µM (highest dose often 46.1 µM), without a hit: at the top dose activation, usual class: activators. 0.31% of 410,000 active. AID 624171; further: potency means the concentration at half of the fitted maximal effect; % of control where 0% means no effect; nearly all actives have a fitted effect of over 65% in size
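Steps: seed AREc32_Fluc cells (1000/well, 5% FBS OPTI-MEM); incubate overnight at 37 deg C; add 23 nL compound; incubate 24 hr; add Steady-Glo; hold 30 min RT; read luminescence.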
Nrf2 inh – inhibitors of Nrf2 signaling. 2.1% of 360,000 active. AID 504444. A549 ARE-Fluc reporter, luciferase luminescence, 18-24 h. Potency, µM (series often up to 46 µM), without a hit: at the top dose activity change, negative = inhibition, usual class: inhibitors; further: potency means the concentration at half of the fitted maximal effect; on the % scale 0 is the no-effect control and ±100 the full control effect; nearly all actives have a fitted effect of over 60% in size
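In this cell-based qHTS, ARE-driven firefly luciferase in A549 cells reports Nrf2 activity; the luminescent signal after BugLite lysis is the measured value, with a prior CellTiter-Fluor read for cell health.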
miR-21 reporter – raises the signal of a miR-21 reporter | Potency, µM (highest dose often 38.3 µM), without a hit: at the top dose reporter change, positive = more light | HeLa miR-21 FLuc reporter, luciferase, 48 h | 340,000 tested, under 10 active; active = well fitted rising curve with a large enough effect; inconclusive = small, poorly fitted or top-dose-only effect; inactive = no such curve, though single readings can be large or run the other way;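 further: % of control where 0% means no effect; miR-21 action dims this reporter so a rising signal means less miR-21 action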
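HeLa miR-21-FLuc reporter line, endogenous miR-21; 2000 cells/well in DMEM/10% FBS; compound titration up to ~40uM final, 48 h, 37 degree Celsius; luciferase detection reagent, 15 min lysis, CCD luminescence.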
TSG101-PTAP inh – blocks PTAP/TSG101 interaction to inhibit HIV-1 budding. Q99816. Fluorescence polarization, FITC-PTAP peptide / Tsg101 binding. AID 493005. Potency, µM (highest dose often 115 µM), for inactives: at the top dose activity change, negative = inhibition, actives largely listed as inhibitors. 340,000 tested, under 10 active; active means well fitted inhibition curve with a large enough effect in the main read-out, with a control signal flat, not every such curve was filed as active; inconclusive means small, poorly fitted or top-dose-only effect, or effect the other way, or a change in a side signal; inactive means no such curve, though single readings can be large or run the other way; further: potency means the concentration at half of the fitted maximal effect; % of control where 0% means no effect
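Compounds were pin-transferred onto Tsg101 binding domain (10 uM final) in HEPES pH 7.5 buffer, then FITC-PTAP peptide was added at 50 nM final. After 20 min at RT, polarization reported peptide displacement across a qHTS concentration series.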
A549 tox – A549 cytotoxicity, counter-screen for Nrf2 inhibitors; A549 ARE-Fluc cells, CellTiter-Fluor viability, 18-24 h; Potency, µM (series often up to 46 µM), for inactives: at the highest dose activity change, negative = cytotoxicity, usual class: inhibitors; 0.16% of 390,000 active; AID 504648; further: potency means the concentration at half of the fitted maximal effect; on the % scale 0 is the no-effect control and ±100 the full control effect
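Cytotoxicity counterscreen: CellTiter-Fluor fluorescence was measured in A549 ARE_Fluc cells after 18-24 h of compound exposure in a concentration series. The subsequent BugLite luminescent read reports ARE-luciferase activity.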
An asterisk follows results filed as active; ? = inconclusive; nt = no result. Sampled rows, rich in hits. Any-hit rate of the full collection: about 2.1%. Unless noted, the call rests on the fitted dose curve; in most records, active means well fitted curve in the direction sought with a large enough effect; inconclusive means small, poorly fitted or top-dose-only effect, or another doubt; inactive means no such curve, though single readings can be large; an effect the other way counts as inactive or inconclusive.

SMILES	GRP78 ERSR act	Nrf2 activator	Nrf2 inh	miR-21 reporter	TSG101-PTAP inh	A549 tox
CC(C)c1ccc(C(=O)Nc2ccc(CN3CCOCC3)cc2)cc1	-4%	3%	?	4%	-7%	9%
O=C(/C=C/c1ccc(Cl)cc1)Nc1ccc(CN2CCOCC2)cc1	-3%	2%	21µM*	21%	1%	?
CCN(CC)S(=O)(=O)c1ccc(/C=C/C(=O)Nc2ccc(N3CCOCC3)cc2)cc1	-6%	3%	16µM*	?	-7%	-14%
O=C(/C=C/c1ccco1)Nc1ccc(S(=O)(=O)N2CCOCC2)cc1	1%	11µM*	-2%	-1%	1%	0%
COc1ccc(/C=C/C(=O)Nc2ccc(N3CCOCC3)cc2)cc1	-4%	-1%	3%	-13%	-1%	-1%
O=C(/C=C/c1ccc(F)cc1)Nc1ccc(S(=O)(=O)N2CCOCC2)cc1	-1%	0%	?	-8%	-1%	1%
CC1Cc2ccccc2N1C(=O)c1ccc(N2CCCCC2)c([N+](=O)[O-])c1 (stereo not given)	-1%	0%	23µM*	1%	0%	-13%
CC1Cc2ccccc2N1C(=O)c1ccc(N2CCCC2)c([N+](=O)[O-])c1 (stereo not given)	0%	3%	18µM*	0%	-3%	?
O=C(c1ccc(N2CCCC2)c([N+](=O)[O-])c1)N1CCc2ccccc2C1	6%	3%	?	nt	-8%	-21%
O=C(c1ccc(N2CCCCC2)c([N+](=O)[O-])c1)N(Cc1ccccc1)c1ccccn1	-5%	3%	16µM*	0%	-5%	-8%
COC(=O)CCN(C(=O)c1ccc(N2CCCCC2)c([N+](=O)[O-])c1)c1ccccn1	3%	0%	-4%	-23%	0%	-2%
COc1cc2nc(N3CCCC(O)C3)c(CNCc3ccccc3F)cc2c(OC)c1OC (stereo not given)	-3%	nt	nt	nt	nt	nt
CC(C)C(=O)NCC1CCC2(CCN(Cc3ccc(-c4ccccc4Cl)o3)CC2)O1 (stereo not given)	2%	nt	nt	nt	nt	nt
CC(=O)c1cccc(NC(=O)COc2ccccc2C(=O)Nc2ccccc2)c1	-2%	nt	nt	nt	nt	nt
COc1cc(OC)cc(C(=O)N[C@H](C(=O)Nc2nc3c(s2)CCCC3)C(C)C)c1	-3%	8%	23µM*	-20%	-2%	-17%
Cc1ccc2c(c1)N(C)/C(=C/c1cccc[n+]1C)S2	0%	0%	6.5µM*	29%	-3%	?
Cn1c(CSc2nc3ccc(Br)cc3[nH]2)nc2ccccc21	0%	3%	21µM*	-27%	-1%	?
COCCNC(=O)c1c[nH]c2ccc(S(=O)(=O)N3CCc4ccccc43)cc2c1=O	-1%	0%	16µM*	25%	-3%	-9%
CC1CCCCN1c1nnc(NC(=O)Nc2ccccc2F)s1 (stereo not given)	-5%	-1%	21µM*	0%	nt	-25%
COc1ccc(-n2ncc(C(=O)NCc3ccc4c(c3)OCO4)c2C2CCN(C(=O)OC(C)(C)C)CC2)cc1	-2%	0%	16µM*	29%	nt	-14%
Cc1ccc(-n2ncc(C(=O)NCc3ccc4c(c3)OCO4)c2C2CCN(C(=O)OC(C)(C)C)CC2)cc1C	-2%	0%	18µM*	?	nt	-4%
COc1ccccc1-c1ccnc(-n2ncc(C(=O)NCc3cccnc3)c2C)n1	1%	nt	nt	nt	nt	nt
COC(=O)c1sccc1S(=O)(=O)N1CCC(n2c(CC3CCCC3)nc3cccnc32)CC1	-4%	nt	nt	nt	nt	nt
CCN(CC)C(=O)c1nn(-c2ccc(OC)cc2)c(=O)c2c(N)scc12	nt	nt	-7%	nt	nt	-5%
CC1c2cc3c(cc2CCN1CC(=O)Nc1ccccc1)OCCCO3 (stereo not given)	-4%	-1%	18µM*	2%	-8%	-11%

Reformatted field by field: four of the compounds above
CC(C)C(=O)NCC1CCC2(CCN(Cc3ccc(-c4ccccc4Cl)o3)CC2)O1 (stereo not given)
  GRP78 ERSR act = 2%	Nrf2 activator = nt	Nrf2 inh = nt	miR-21 reporter = nt	TSG101-PTAP inh = nt	A549 tox = nt
CC(=O)c1cccc(NC(=O)COc2ccccc2C(=O)Nc2ccccc2)c1
  GRP78 ERSR act = -2%	Nrf2 activator = nt	Nrf2 inh = nt	miR-21 reporter = nt	TSG101-PTAP inh = nt	A549 tox = nt
COc1cc(OC)cc(C(=O)N[C@H](C(=O)Nc2nc3c(s2)CCCC3)C(C)C)c1
  GRP78 ERSR act = -3%	Nrf2 activator = 8%	Nrf2 inh = 23µM*	miR-21 reporter = -20%	TSG101-PTAP inh = -2%	A549 tox = -17%
Cc1ccc2c(c1)N(C)/C(=C/c1cccc[n+]1C)S2
  GRP78 ERSR act = 0%	Nrf2 activator = 0%	Nrf2 inh = 6.5µM*	miR-21 reporter = 29%	TSG101-PTAP inh = -3%	A549 tox = ?
